Reference: ChEMBL document CHEMBL2176887, “Chemokine receptor antagonists” (J Med Chem, 2012)

The chains behind the UniProt entries cited, without tags or fusion partners.
UniProt P25024, whole entry: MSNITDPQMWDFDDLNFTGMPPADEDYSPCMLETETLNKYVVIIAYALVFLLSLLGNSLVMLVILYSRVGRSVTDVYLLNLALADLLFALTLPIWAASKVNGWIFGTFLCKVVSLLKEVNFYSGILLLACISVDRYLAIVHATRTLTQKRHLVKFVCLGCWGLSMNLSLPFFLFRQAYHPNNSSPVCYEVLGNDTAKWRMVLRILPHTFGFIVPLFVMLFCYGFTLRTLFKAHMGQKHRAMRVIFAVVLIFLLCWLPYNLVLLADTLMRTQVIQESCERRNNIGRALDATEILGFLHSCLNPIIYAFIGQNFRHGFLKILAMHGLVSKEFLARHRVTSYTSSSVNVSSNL

How the values were obtained:
[1] = biological target: T1, C-X-C chemokine receptor type 1 (Homo sapiens, UniProt P25024); test: Antagonist activity at CXCR1 assessed as inhibition of CXCL8 binding by cell based assay
[2] = biological target: T1, C-X-C chemokine receptor type 1

- IC50 [1]: 22 nM
- IC50 [2]: > 3000 nM
SMILES: O=C(Nc1ccc([N+](=O)[O-])cc1O)Nc1ccccc1Br
